# Results taken from US6809107B1, “Neurotrophic pyrrolidines and piperidines, and related compositions and methods” (Ortho-McNeil Pharmaceutical, Inc., priority 1999, dated 2004).
# Test system: Primary Rat Hippocampal Cells
# Assay: Neurite outgrowth assay in primary rat hippocampal cells
# Type: cell-based
# Details: MAP-2 immunofluorescence, active if greater than mean DMSO-treated control
# Description: Hippocampal cells are dissected from the brains of embryonic day 18 rat pups and dissociated with trypsin (1 mg/mL) and trituration. Cells are seeded at 30,000 cells/well in 96-well plates filled with 100 μL MEM and 10% FBS. At 7 days in culture, cells are fixed with 4% paraformaldehyde and immuno-fluorescence is performed.
# Cultures are incubated with normal horse serum (1:50; Vector Labs) for about 20 min, rinsed and then incubated with primary antibody, microtubule associated-protein 2 (anti-mouse MAP-2; 1:1000; Chemicon) for about 2 h at about RT. Following primary antibody, cultures are rinsed and incubated with fluorescein anti-mouse IgG (rat absorbed; 1:50; Vector Labs) for about 1 h. After fluorescein incubation, the cultures are rinsed and read in PBS on a fluorescent plate reader (excitation: 485 nm; emission: 530 nm). […] The response to test compound is reported as percent of DMSO-treated control.
smiles,measurement,value
CCC(C)(C)C(=O)C(=O)N1CCCC1c1csc([C@@H]2CCCN2C(=O)C(=O)C(C)(C)CC)n1 (stereo partly shown) [Compound 43],Rat Hippocampal Cell Response,120% of DMSO-treated control
